# From patent US12427149B2, “Methods and compositions for the prevention and treatment of hearing loss” (Ting Therapeutics, Inc., priority 2019, dated 2025)
# What was measured:
# [1] = Cisplatin-induced hearing loss in adult mice, oral delivery, ABR threshold shifts; assay type: in vivo, FVB mice; conditions: day 21; cisplatin 30 mg/kg and dabrafenib 100 mg/kg co-treatment; vs cisplatin alone
# [2] = Noise-induced hearing loss in adult mice, oral delivery, ABR threshold shifts; assay type: in vivo, FVB mice; conditions: day 14
# Method: Now referring to FIGS. 8A and 8B, Dabrafenib is protective against noise-induced hearing loss in adult mice when delivered orally forty-five minutes before the noise exposure. (A) Schedule of administration of dabrafenib and noise exposure to FVB mice (males and females). (B) Reduced ABR threshold shifts of 18.1-21.9 dB in average were recorded on day 14 after first day of dabrafenib and noise exposure, mean±SEM, **, P<0.01, ***, P<0.001, compared to carrier by two-way ANOVA followed by a Bonferroni comparison.
# In this example, compounds for oral delivery were dissolved in the carrier 10% DMSO, 40% PF5300, 5% Tween-80 and 45% saline (0.9% NaCl) and were given in a volume of 10 ml/kg. In FIG. 13B Dabrafenib (2×60 mg/kg/day) is given by oral delivery continuously for 3 days post-noise. In FIG. 13C AZD5438 (2×35 mg/kg/day) is given by oral delivery continuously for 3 days post-noise. In FIG. 13D complete protection against noise is achieved with combination of the two drugs for 3 days post-noise (dabrafenib (2×60 mg/kg/day) and AZD5438 (2×35 mg/kg/day), mean±SEM, *, P<0.05, **, P<0.01, compared to carrier alone by unpaired two-tailed Student's t-test
smiles,measurement,setting,value
CC(C)(C)c1nc(-c2cccc(NS(=O)(=O)c3c(F)cccc3F)c2F)c(-c2ccnc(N)n2)s1 [Dabrafenib],reduced ABR threshold shifts (average),[1],11.8-15.0 dB
same,reduced ABR threshold shifts (average),"[2]; dabrafenib 60 mg/kg x2 daily and noise exposure, vs carrier (FIG. 8B)",18.1-21.9 dB
same,reduced ABR threshold shifts (average),"[2]; dabrafenib 60 mg/kg x2 daily and noise exposure, vs carrier (FIG. 8B), listed as dabrafenib",13.5-21.2 dB
same,reduced ABR threshold shifts (average),"[2]; dabrafenib 100 mg/kg and noise exposure, vs carrier (FIG. 7B)",18.1-21.9 dB
